From US9303088B2, “Detecting and treating breast cancer resistance to EGFR inhibitors” (The Regents of the University of California, priority 2009, dated 2016)

System: FAM83A overexpressing T4-2 cells
Experiment: Phenotypic reversion of FAM83A-overexpressing T4-2 cells in 3D lrECM with inhibitors
Assay type: cell-based, human
Conditions: FIG. 17C

Question: `COc1cc2ncnc(Nc3ccc(F)c(Cl)c3)c2cc1OCCCN1CCOCC1` [gefitinib] was tested. Which “structure of FAM83A-overexpressing T4-2 cells in presence of EGFR inhibitor” value did it give?
Answer: Its value is “maintained disorganized structures”.
